Patent publication US20170354148A1, “SAFENED HERBICIDAL COMPOSITIONS CONTAINING HALAUXIFEN AND METHODS OF USE THEREOF IN BRASSICA SPECIES” (Dow AgroSciences LLC, priority 2016, published 2017)

Key:
[1] = test system: Spring Argentine canola (Brassica napus, BRSNS); assay: Example 3 field trials (Canada), postemergence crop safety, visual phytotoxicity
[2] = test system: Aparima Gold swede (Brassica sp., BRSSS); assay: Example 2 field trials (Canterbury, New Zealand), postemergence crop safety, visual phytotoxicity; conditions: 22DAA1, 3.75 g ae/ha

Structure (SMILES): COC(=O)c1nc(-c2ccc(Cl)c(OC)c2F)cc(N)c1Cl [Halauxifen-methyl, methyl 4-amino-3-chloro-6-(4-chloro-2-fluoro-3-methoxyphenyl)-2-pyridineccarboxylate]
- Mean % Visual Deformation ([1]; BRSNS, 60DAA1, 10 g ae/ha): 13.8%
- Mean % Visual Injury ([1]; BRSNS, trial 4, 15DAA1, 5 g ae/ha): 26.3%
- Mean % Visual Injury ([1]; Table 23, 32DAAA, halauxifen-methyl 5, clopyralid-olamine 150 g ae/ha, alone or mixed): 21.3%
- Mean % Visual Injury ([1]; Table 24, 32DAAA, halauxifen-methyl 5, clopyralid-olamine 150 g ae/ha alone, or both mixed with isoxadifen-ethyl 20 g ae/ha): 21.3%
- Mean % Visual Injury ([1]; Table 27, 32DAAA, halauxifen-methyl 5, quinclorac 101 g ae/ha, alone or mixed): 21.3%
- Mean % Visual Injury ([1]; Table 28, 32DAAA, halauxifen-methyl 5, clopyralid-olamine 150, quinclorac 101 g ae/ha, alone or mixed): 21.3%
- Mean % Visual Growth Inhibition ([1]; Trial 9, 6DAA1, halauxifen-methyl 5, clopyralid-olamine 150 g ae/ha, alone or mixed): 16.3%
- Mean % Visual Growth Inhibition [2]: 16.3%
